Reference: patent US12011433B2, “Mofezolac derivatives as multi-functions selective COX-1 inhibitors” (UNIVERSITÁ DEGLI STUDI DI BARI “ALDO MORO”, priority 2016, dated 2024)

By UniProt entry, the sequences of proteins in these tests, tags left out. Residues count along the entry.
UniProt P05979, 25-600: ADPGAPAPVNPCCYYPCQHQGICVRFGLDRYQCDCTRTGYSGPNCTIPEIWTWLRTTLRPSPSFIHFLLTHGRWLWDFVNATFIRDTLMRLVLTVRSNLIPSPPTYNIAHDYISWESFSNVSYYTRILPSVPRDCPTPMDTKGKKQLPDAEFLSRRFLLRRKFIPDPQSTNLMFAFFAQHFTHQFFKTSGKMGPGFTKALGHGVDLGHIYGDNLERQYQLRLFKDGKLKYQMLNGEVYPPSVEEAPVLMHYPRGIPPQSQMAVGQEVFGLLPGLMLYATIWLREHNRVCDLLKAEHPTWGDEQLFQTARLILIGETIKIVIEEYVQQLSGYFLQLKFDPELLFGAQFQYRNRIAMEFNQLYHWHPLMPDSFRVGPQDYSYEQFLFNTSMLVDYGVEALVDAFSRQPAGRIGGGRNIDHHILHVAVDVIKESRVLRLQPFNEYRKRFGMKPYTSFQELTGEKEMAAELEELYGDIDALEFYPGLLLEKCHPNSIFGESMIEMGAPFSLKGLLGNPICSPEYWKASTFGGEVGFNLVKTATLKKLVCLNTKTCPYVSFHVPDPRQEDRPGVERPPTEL

Target: ovine COX-1 (Ovis aries (Sheep), UniProt P05979)
Assay: colorimetric COX (ovine) inhibitor screening assay kit
Assay type: biochemical
Description: The target compounds were evaluated for their ability to inhibit ovine COX-1 and COX-2 enzyme catalytic activity (percent inhibition at 50 mm, unless otherwise indicated). […] Enzyme inhibition was determined using a colorimetric COX (ovine) inhibitor screening assay kit (Cayman Chemicals, Ann Arbor, MI, USA) following the manufacturer's instructions. Stock solutions of test compounds were dissolved in a minimum volume of DMSO.

## COc1ccc(-c2noc(CC(=O)O)c2-c2ccc(OC)cc2)cc1 [drawing 42, reference compound]
  IC50: 7.9 nM
